Data reported in patent US10308645B2, “Piperidine oxadiazole and thiadiazole orexin receptor antagonists” (MERCK SHARP & DOHME CORP., priority 2014, dated 2019).

Molecular target: hOX1R (orexin-1 receptor) (Homo sapiens, UniProt O43613)
Test: FLIPR Ca2+ Flux Assay, hOX1R
Type: cell-based

C[C@@H]1CC[C@@H](c2nsc(C(C)(C)O)n2)CN1C(=O)c1cccnc1OCC(F)(F)F [Example 38, 2-{3-[(3R,6R)-6-methyl-1-{[2-(2,2,2-trifluoroethoxy)pyridin-3-yl]carbonyl}piperidin-3-yl]-1,2,4-thiadiazol-5-yl}propan-2-ol]
IC50: > 10 µM
